In US20040057976A1, “Insect bait” (priority 2002, published 2004):

System: T. Albipes adults
Conditions: first trial; 3 days exposure; non-forced bioassay; means of 5 replicates
Text: White-footed ants were collected from a stand of Phoenix roebelenii palms at the University of Florida Fort Lauderdale Research and Education Center (Broward Co., FL). Adult ants and brood were collected from nesting sites in palm thatch between 9 a.m. and 3 p.m., when most of the foragers are in the nests. The thatch was placed in a plastic 100-liter garbage pail through a 28-cm hole cut into the center of its lid. The upper portions of the interior sides of the pail were coated with a petroleum jelly (Vaseline® London, UK) to retard the ants' escape.
Infested thatch material was taken from the garbage pail, placed in the container, covered with 1×15-cm strips of wood and a separator sheet of 3-mm polycarbonate with 2-mm holes. Dripping water from a 2-1 tank suspended over the container forced the ants to leave the thatch and enter nesting tubes (10×75 mm clear polystyrene test tubes) (Fisher Scientific, Pittsburgh, Pa.), filled at the bottom with a small cotton ball soaked with sugar water, and completely covered with aluminum foil.
Nalgene™ reusable plastic utility boxes with lids ([…]) (Fisher Scientific, Pittsburgh, Pa.) were used to hold white-footed ant colonies for laboratory tests (FIG. 4). Nesting tubes with about 200 ants and dozens of brood were placed into each box, held in place with a small amount of Handi-Tak®. […]

`O=[N+]([O-])NC1=NCCN1Cc1ccc(Cl)nc1` [Imidacloprid] was tested, and the “Mean percent Mortality (+/SD) of T. Albipes adults” value was 14.06 ± 7.40b %.
